Tested on: murine tumors and human tumor xenografts
Experiment: Antineoplastic activity in tumor-carrying animals, general statements
Conditions: treated animals regain their initial weight loss

## Nc1ccc(C(=O)Nc2ccccc2N)cc1 [Substance A, 4-Amino-N-(2'-aminophenyl)-benzamide]
  tolerated duration of doses just under the acutely lethal dose: more than 30 days

From US4933368A, “N-phenylbenzamide derivatives” (Godecke Aktiengesellschaft, priority 1983, dated 1990)
